Read-outs that look alike come from different tables or passages of the source.
Key:
Type in all cases: biochemical
GSK-3β (AA 1-420) = target: T1, GSK-3β (AA 1-420) (Homo sapiens, UniProt P49841); assay: Ki determination for the inhibition of GSK-3 (coupled enzyme system); settings: 20 nM GSK-3β, 30° C.
T1 construct: GSK-3β (AA 1-420)
Description: Compounds were screened for their ability to inhibit GSK-3β (AA 1-420) activity using a standard coupled enzyme system (Fox et al. (1998) Protein Sci. 7, 2249). Reactions were carried out in a solution containing 100 mM HEPES (pH 7.5), 10 mM MgCl2, 25 mM NaCl, 300 μM NADH, 1 mM DTT and 1.5% DMSO. Final substrate concentrations in the assay were 20 μM ATP (Sigma Chemicals, St Louis, Mo.) and 300 μM peptide (HSSPHQS (PO3H2) EDEEE, American Peptide, Sunnyvale, Calif.). Reactions were carried out at 30° C. and 20 nM GSK-3β. Final concentrations of the components of the coupled enzyme system were 2.5 mM phosphoenolpyruvate, 300 μM NADH, 30 μg/ml pyruvate kinase and 10 μg/ml lactate dehydrogenase.
An assay stock buffer solution was prepared containing all of the reagents listed above with the exception of ATP and the test compound of interest. The assay stock buffer solution (175 μl) was incubated in a 96 well plate with 5 μl of the test compound of interest at final concentrations spanning 0.002 μM to 30 μM at 30° C. for 10 min. […] The reaction was initiated by the addition of 20 μl of ATP (final concentration 20 μM). Rates of reaction were obtained using a Molecular Devices Spectramax plate reader (Sunnyvale, Calif.) over 10 min at 30° C. The Ki values were determined from the rate data as a function of inhibitor concentration.

By UniProt entry, the sequences of proteins in these tests, tags left out. Where a name states a change or a piece, a line headed by the entry shows the natural chain unless it says otherwise.
UniProt P49841: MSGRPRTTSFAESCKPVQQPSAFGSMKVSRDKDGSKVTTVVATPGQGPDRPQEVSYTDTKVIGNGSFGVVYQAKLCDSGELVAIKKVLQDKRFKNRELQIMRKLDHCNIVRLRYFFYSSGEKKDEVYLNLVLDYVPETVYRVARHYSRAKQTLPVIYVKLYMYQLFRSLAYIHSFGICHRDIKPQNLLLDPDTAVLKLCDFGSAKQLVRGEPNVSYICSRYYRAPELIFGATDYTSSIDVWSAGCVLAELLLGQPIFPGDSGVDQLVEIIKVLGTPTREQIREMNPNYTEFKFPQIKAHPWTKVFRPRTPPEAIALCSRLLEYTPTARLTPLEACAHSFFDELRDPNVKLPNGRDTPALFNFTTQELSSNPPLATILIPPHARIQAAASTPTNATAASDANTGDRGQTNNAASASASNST
UniProt P12931, whole entry: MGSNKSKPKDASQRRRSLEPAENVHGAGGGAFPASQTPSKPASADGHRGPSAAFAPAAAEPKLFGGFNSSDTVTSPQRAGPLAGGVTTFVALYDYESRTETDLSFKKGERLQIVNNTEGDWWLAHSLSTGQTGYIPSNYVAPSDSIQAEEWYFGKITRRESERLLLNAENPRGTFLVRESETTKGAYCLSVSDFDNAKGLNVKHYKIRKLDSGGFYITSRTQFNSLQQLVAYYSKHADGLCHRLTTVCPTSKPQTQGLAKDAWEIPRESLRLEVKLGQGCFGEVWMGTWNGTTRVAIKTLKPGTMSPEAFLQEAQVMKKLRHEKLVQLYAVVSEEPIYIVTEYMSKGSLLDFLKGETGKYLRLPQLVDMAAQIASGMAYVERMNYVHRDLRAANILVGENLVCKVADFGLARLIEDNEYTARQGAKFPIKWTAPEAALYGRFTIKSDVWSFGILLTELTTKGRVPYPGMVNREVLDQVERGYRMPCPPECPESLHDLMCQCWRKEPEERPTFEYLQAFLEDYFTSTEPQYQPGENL

Aurora-2 = target: T2, Aurora-2 (Homo sapiens, UniProt O14965); assay: Ki determination for the inhibition of Aurora-2 (coupled enzyme assay)
T2 sequence (O14965 1-403): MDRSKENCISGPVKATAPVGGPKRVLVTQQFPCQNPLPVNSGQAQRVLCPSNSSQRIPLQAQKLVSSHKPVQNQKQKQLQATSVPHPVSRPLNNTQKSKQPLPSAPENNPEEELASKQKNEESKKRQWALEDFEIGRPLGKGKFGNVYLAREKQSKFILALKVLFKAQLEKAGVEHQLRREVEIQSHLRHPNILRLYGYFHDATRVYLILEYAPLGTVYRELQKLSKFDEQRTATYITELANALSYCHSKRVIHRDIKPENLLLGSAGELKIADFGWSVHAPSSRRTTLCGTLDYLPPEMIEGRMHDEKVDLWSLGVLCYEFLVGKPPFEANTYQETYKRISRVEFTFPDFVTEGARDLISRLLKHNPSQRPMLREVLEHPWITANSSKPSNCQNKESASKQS
Description: Compounds were screened in the following manner for their ability to inhibit Aurora-2 using a standard coupled enzyme assay (Fox et al (1998) Protein Sci 7, 2249).
To an assay stock buffer solution containing 0.1M HEPES 7.5, 10 mM MgCl2, 1 mM DTT, 25 mM NaCl, 2.5 mM phosphoenolpyruvate, […], 30 mg/ml pyruvate kinase, 10 mg/ml lactate dehydrogenase, […], and 800 μM peptide (LRRASLG, American Peptide, Sunnyvale, Calif.) was added a DMSO solution of a compound of the present invention to a final concentration of 30 μM. The resulting mixture was incubated at 30° C. for 10 min. The reaction was initiated by the addition of 10 μL of Aurora-2 stock solution to give a final concentration of 70 nM in the assay. The rates of reaction were obtained by monitoring absorbance at 340 nm over a 5 minute read time at 30° C. using a BioRad Ultramark plate reader (Hercules, Calif.). The Ki values were determined from the rate data as a function of inhibitor concentration.

human Src kinase = target: T3, human Src kinase (Homo sapiens, UniProt P12931); assay: SRC inhibition assay (radioactivity-based or spectrophotometric assay)
T3 construct: full length recombinant human Src kinase (from Upstate Biotechnology, cat. no. 14-117); purchased Upstate Biotechnology 14-117; host or cells: baculo viral cells
Description: The compounds were evaluated as inhibitors of human Src kinase using either a radioactivity-based assay or spectrophotometric assay. The compounds were assayed as inhibitors of full length recombinant human Src kinase (from Upstate Biotechnology, cat. no. 14-117) expressed and purified from baculo viral cells. […] P-0275). […] In a typical assay, all the reaction components with the exception of ATP were pre-mixed and aliquoted into assay plate wells. […] The assay plate was incubated at 30° C. for 10 min before initiating the reaction with ^33P-ATP. After 20 min of reaction, the reactions were quenched with 150 μl of 10% trichloroacetic acid (TCA) containing 20 mM Na3PO4. The quenched samples were then transferred to a 96-well filter plate (Whatman, UNI-Filter GF/F Glass Fiber Filter, cat no. 7700-3310) installed on a filter plate vacuum manifold. Filter plates were washed four times with 10% TCA containing 20 mM Na3PO4 and then 4 times with methanol. 200 μl of scintillation fluid was then added to each well. The plates were sealed and the amount of radioactivity associated with the filters was quantified on a TopCount scintillation counter. The radioactivity incorporated was plotted as a function of the inhibitor concentration. The data was fitted to a competitive inhibition kinetics model to get the Ki for the compound. The ADP produced from ATP by the human recombinant Src kinase-catalyzed phosphorylation of poly Glu-Tyr substrate was quanitified using a coupled enzyme assay (Fox et al (1998) Protein Sci 7, 2249). In this assay one molecule of NADH is oxidised to NAD for every molecule of ADP produced in the kinase reaction. The disappearance of NADH can be conveniently followed at 340 nm. […] In a typical assay, all the reaction components with the exception of ATP were pre-mixed and aliquoted into assay plate wells. […] The absorbance change at 340 nm with time, the rate of the reaction, was monitored on a molecular devices plate reader. The data of rate as a function of the inhibitor concentration was fitted to competitive inhibition kinetics model to get the Ki for the compound.

[1] = 70 nM Aurora-2, 30° C., read-out: Ki values for Aurora-2
[2] = 20 μM ATP, read-out: Ki values for GSK-3

SMILES | Ki (GSK-3β (AA 1-420); Ki values for GSK-3, 20 μM ATP) [nM] | Ki (Aurora-2; [1]) [nM] | Ki (Aurora-2) [nM] | Ki (GSK-3β (AA 1-420); [2]) [nM] | Ki (human Src kinase) [nM]
Cc1cc(Nc2nc(Sc3ccc(NC(=O)C4CC4)cc3)nc3ccccc23)n[nH]1 [IIa-51, [2-(4-cyclopropanecarbonylamino-phenylsulfanyl)-quinazolin-4-yl]-(5-methyl-2H-pyrazol-3-yl)-amine] | 1000 to 7000 | < 100 | – | – | –
Cc1cc(Nc2nc(Sc3ccccc3)nc3ccccc23)n[nH]1 [IIa-1, (5-Methyl-2H-pyrazol-3-yl)-(2-phenylsulfanyl-quinazolin-4-yl)-amine] | 100 to 1000 | < 100 | – | – | –
Cc1cc(Nc2nc(Nc3ccccc3)nc3ccccc23)n[nH]1 [IIc-4, (5-Methyl-2H-pyrazol-3-yl)-(2-phenylamino-quinazolin-4-yl)-amine] | 100 to 1000 | < 100 | – | – | –
COc1ccc(Sc2nc(Nc3cc(C)[nH]n3)c3ccccc3n2)cc1 [IIa-4, [2-(4-Methoxyphenylsulfanyl)-quinazolin-4-yl]-(5-methyl-2H-pyrazol-3-yl)-amine] | 100 to 1000 | < 100 | – | – | –
CC(=O)Nc1ccc(Sc2nc(Nc3cc(C4CC4)[nH]n3)c3ccccc3n2)cc1 [IIa-36, [2-(4-Acetamido-phenylsulfanyl)-quinazolin-4-yl]-(5-cyclopropyl-2H-pyrazol-3-yl)-amine] | 100 to 1000 | – | < 100 | – | –
Cc1cc(Nc2nc(Sc3ccc(Cl)c(Cl)c3)nc3ccccc23)n[nH]1 [IIa-18, [2-(3,4-Dichlorophenylsulfanyl)-quinazolin-4-yl]-(5-methyl-2H-pyrazol-3-yl)-amine] | – | < 100 | – | < 100 | –
Cc1cc(Nc2nc(Sc3ccc(NC(=O)OC(C)(C)C)cc3)nc3ccccc23)n[nH]1 [IIa-58, [2-(4-tert-Butoxycarbonylamino-phenylsulfanyl)-quinazolin-4-yl]-(5-methyl-2H-pyrazol-3-yl)-amine] | – | < 100 | – | – | –
Cc1cc(Nc2nc(Sc3ccc4ccccc4c3)nc3ccccc23)n[nH]1 [IIa-16, [2-(2-Naphthalenylsulfanyl)-quinazolin-4-yl]-(5-methyl-2H-pyrazol-3-yl)-amine] | – | < 100 | – | – | –
Cc1cc(Nc2nc(N(CCO)c3ccccc3)nc3ccccc23)n[nH]1 [IIc-1, {2-[(2-Hydroxyethyl)phenylamino]-quinazolin-4-yl}-(5-methyl-2H-pyrazol-3-yl)-amine] | 100 to 1000 | < 100 | – | – | 1000 to 6000
Cc1cc(Nc2nc(COc3ccc(Cl)cc3)nc3c2CCCCC3)n[nH]1 [IId-5, [2-(4-Chlorophenoxymethyl)-6,7,8,9-tetrahydro-5H-cycloheptapyrimidin-4-yl]-(5-methyl-2H-pyrazol-3-yl)-amine] | 100 to 1000 | – | 100 to 1000 | – | –
Cc1cc(Nc2nc(Sc3c(Cl)cccc3Cl)nc3ccccc23)n[nH]1 [IIa-17, [2-(2,6-Dichlorophenylsulfanyl)-quinazolin-4-yl]-(5-methyl-2H-pyrazol-3-yl)-amine] | – | < 100 | – | < 100 | –
Cc1cc(Nc2nc(N(C)c3ccccc3)nc3ccccc23)n[nH]1 [IIc-2, [2-(Methylphenylamino)-quinazolin-4-yl]-(5-methyl-2H-pyrazol-3-yl)-amine] | 100 to 1000 | < 100 | – | – | 1000 to 6000
CN(c1ccccc1)c1nc(Nc2n[nH]c3ccccc23)c2ccccc2n1 [IIc-74, (1H-Indazol-3-yl)-(2-methyl-phenyl-amino-quinazolin-4-yl)-amine] | 1000 to 7000 | – | – | – | –
CC(=O)Nc1ccc(Sc2nc(Nc3cc(C)n[nH]3)c3cccc(F)c3n2)cc1 [IIa-78, [2-(4-Acetamidophenylsulfanyl)-8-fluoro-quinazolin-4-yl]-(5-methyl-2H-pyrazol-3-yl)-amine] | 100 to 1000 | < 100 | – | – | 1000 to 6000
COc1ccc(Sc2nc(Nc3cc(C)[nH]n3)c3ccccc3n2)cc1OC [IIa-13, [2-(3,4-Dimethoxyphenylsulfanyl)-quinazolin-4-yl]-(5-methyl-2H-pyrazol-3-yl)-amine] | 1000 to 7000 | < 100 | – | – | 1000 to 6000
Cc1cc(Nc2nc(Nc3ccc4cn[nH]c4c3)nc3ccccc23)n[nH]1 [IIc-9, [2-(1H-Indazol-6-ylamino)-quinazolin-4-yl]-(5-methyl-2H-pyrazol-3-yl)-amine] | 100 to 1000 | < 100 | – | – | –
CCC(=O)Nc1ccc(Sc2nc(Nc3cc(C)[nH]n3)c3ccccc3n2)cc1 [IIa-50, (5-Methyl-2H-pyrazol-3-yl)-[2-(4-propionylamino-phenylsulfanyl)-quinazolin-4-yl]-amine] | 1000 to 7000 | < 100 | – | – | –
Cc1cc(Nc2nc(Sc3ccc(Cl)cc3)nc3ccccc23)n[nH]1 [IIa-2, [2-(4-Chlorophenylsulfanyl)-quinazolin-4-yl]-(5-methyl-2H-pyrazol-3-yl)-amine] | – | < 100 | – | < 100 | –
Cc1cc(Nc2nc(Sc3cccc(Cl)c3Cl)nc3ccccc23)n[nH]1 [IIa-8, [2-(2,3-Dichlorophenylsulfanyl)-quinazolin-4-yl]-(5-methyl-2H-pyrazol-3-yl)-amine] | < 100 | – | < 100 | – | –
COc1ccccc1Sc1nc(Nc2cc(C)[nH]n2)c2ccccc2n1 [IIa-15, [2-(2-Methoxyphenylsulfanyl)-quinazolin-4-yl]-(5-methyl-2H-pyrazol-3-yl)-amine] | 100 to 1000 | < 100 | – | – | –
Cc1cc(Nc2nc(Oc3ccccc3)nc3ccccc23)n[nH]1 [IIb-3, (5-Methyl-2H-pyrazol-3-yl)-(2-phenoxy-quinazolin-4-yl)-amine] | – | < 100 | – | < 100 | 1000 to 6000
Cc1cc(Nc2nc(Sc3cccc(Cl)c3)nc3ccccc23)n[nH]1 [IIa-9, [2-(3-Chlorophenylsulfanyl)-quinazolin-4-yl]-(5-methyl-2H-pyrazol-3-yl)-amine] | < 100 | – | < 100 | – | –
Cc1cc(Nc2nc(Sc3ccc(Cl)cc3Cl)nc3ccccc23)n[nH]1 [IIa-3, [2-(2,4-Dichlorophenylsulfanyl)-quinazolin-4-yl]-(5-methyl-2H-pyrazol-3-yl)-amine] | – | < 100 | – | < 100 | –
Cc1cc(Nc2nc(Sc3ccccc3Cl)nc3ccccc23)n[nH]1 [IIa-7, [2-(2-Chlorophenylsulfanyl)-quinazolin-4-yl]-(5-methyl-2H-pyrazol-3-yl)-amine] | 100 to 1000 | – | < 100 | – | –

Source: patent publication US6653300B2, “Pyrazole compounds useful as protein kinase inhibitors” (Vertex Pharmaceuticals Incorporated, priority 2000, dated 2003)
